The target of this assay is Thymidylate synthase (Homo sapiens, UniProt P04818).

Sequences of proteins named here, by UniProt entry; tags and fusion partners are left off. A change or cut given only in a name is not applied to a line headed by its entry.
UniProt P04818: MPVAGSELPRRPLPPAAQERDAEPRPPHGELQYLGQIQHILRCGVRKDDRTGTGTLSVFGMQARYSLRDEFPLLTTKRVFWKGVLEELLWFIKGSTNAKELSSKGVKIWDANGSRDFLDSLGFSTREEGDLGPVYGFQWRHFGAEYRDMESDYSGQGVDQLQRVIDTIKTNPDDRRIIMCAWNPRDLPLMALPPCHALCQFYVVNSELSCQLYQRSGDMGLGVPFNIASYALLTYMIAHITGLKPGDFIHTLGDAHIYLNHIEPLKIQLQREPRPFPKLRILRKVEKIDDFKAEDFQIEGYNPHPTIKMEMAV

The text below walks through data of ChEMBL document CHEMBL1151945 (J Med Chem, 2009).

One may read the IC50 as the concentration that inhibits the measured activity by half. Lower therefore signals greater potency in that assay.

Take `CCc1sc2nc(N)[nH]c(=O)c2c1Sc1ccncc1`: the concentration for half-maximal inhibition (IC50) stood at 280 nM.
